# CDK5 p35 inh = inhibitors of human CDK5/p35 kinase, primary screen, biochemical, single concentration. Recombinant CDK5/p35, ADP-Glo luminescence, 60 min. inhibition, % at 10 µM. 330,000 compounds, 0.01% hits. AID 488839, 2010;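 active means highest replicate inhibition of at least 50% and at least 75% of replicates reaching 50%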;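 further: plate controls were DMSO neutral control for no effect and GW8510 at 10 µM for full effect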
# Yeast UUG start = alters start codon recognition fidelity in yeast; S. cerevisiae UUG-firefly luciferase reporter, luminescence/redox ratio; activity score, % at 18.7 µM; actives 0.13% (n = 350,000); AID 602363;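 active = replicate mean at a twofold rise or more, about +100% in these data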;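 also: firefly luciferase made from a UUG start codon reports start codon fidelity; reporter light over untreated wells divided by growth signal over untreated wells; some hits fall short of that in this replicate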
# Statin myotox sup = suppressors of statin myotoxicity in C2C12 myotubes, primary screen, cell-based, single point, plate reader; C2C12 myotubes + simvastatin, ATP luminescence, 48 h; scaled: DMSO 0, geranylgeraniol control 100; rescue of ATP level, % at 7.49 µM; 330,000 compounds, 0.78% hits;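 active means mean ATP rescue above about 67%, or every replicate alone reaching that limit, limit read from the data, passing the limit was not always enough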;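 further: myotubes were challenged with 10 µM simvastatin during compound exposure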
# Rtt109 Vps75 = inhibitors of C. albicans Rtt109/Vps75 HAT, primary screen, biochemical, ThioGlo CoA-SH fluorescence, plate reader | purified Rtt109/Vps75, 4 h | inhibition, % at 34.9 µM | 330,000 compounds, 0.16% hits | AID 540336, 2011;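 active means inhibition of at least 50% in every replicate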
# Cneo AK release = Cryptococcus neoformans cell lysis inducers, primary screen, AK release luminescence, single concentration. C. neoformans lysis, adenylate kinase release luminescence, 4 h; normalised: neutral wells 0, clomiphene wells 100. lysis activity, % at 15 µM. 360,000 compounds, 0.2% hits. AID 651654, 2012;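 active means mean lysis activity across replicates of at least 80%, whatever share of replicates individually reach that level; inactive means mean lysis activity below 80%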
#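 read-out = cell lysis signal | test system = log-phase Cryptococcus neoformans yeast cells | input = cells at 5 × 10^6 per mL | medium = fresh YPD growth medium | signal = luminescent adenylate kinase detection reagent | timing = 4 h at 37 °C static, read 1 h later | dosing = single dose | controls = Clomiphene as positive lysis control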
# * = called active by the depositor; x = no result given. Rows were chosen to be rich in hits. Some 1% of all compounds tested hit in one or more screens of this group.
# Results follow in this order: Yeast UUG start, Statin myotox sup, Cneo AK release, CDK5 p35 inh, Rtt109 Vps75
1. C[C@H]1CN([C@@H](C)CO)C(=O)c2cc(-c3cncnc3)cnc2O[C@H]1CN(C)C(=O)Cc1ccccc1
    9, 4, 45, x, x
2. C[C@@H]1CN([C@@H](C)CO)C(=O)c2cc(C#CC3(O)CCCC3)cnc2O[C@@H]1CN(C)Cc1cccnc1
    11, 17, x, x, x
3. C[C@@H]1CN([C@@H](C)CO)C(=O)c2cc(-c3cncnc3)cnc2O[C@H]1CN(C)C(=O)Cc1ccccc1
    11, 14, 80*, x, x
4. C[C@H](O)C#Cc1cnc2c(c1)C(=O)N([C@@H](C)CO)C[C@@H](C)[C@@H](CN(C)C(=O)Cc1ccncc1)O2
    x, 1, 115*, x, x
5. C[C@H](CO)N1C[C@H](C)[C@H](CN(C)C(=O)Cc2ccncc2)Oc2ncc(C#C[C@@H](C)O)cc2C1=O
    x, -13, 3, x, x
6. Fc1ccc(C2=Nn3c(nnc3-c3n[nH]c4c3CCC4)SC2)cc1
    -18, 114*, -1, 1, 0
7. O=C(C1CCOCC1)N1CC[C@@H]2[C@H](CO)Nc3ccc(Br)cc3[C@@H]21
    1, 19, -12, x, x
8. O=C(CN1CCOCC1)N1CC[C@@H]2[C@@H](CO)Nc3ccc(-c4ccccc4F)cc3[C@@H]21
    20, -4, 101*, x, x
9. O=C(C1CCOCC1)N1CC[C@@H]2[C@H]1c1cc(Br)ccc1N[C@@H]2CO
    13, 17, 87*, x, x
10. CN1CCN(C(=O)C[C@@H]2CC[C@@H]3[C@H](COC[C@@H](O)CN3C(=O)C3CCOCC3)O2)CC1
    -7, -12, 0, x, x
11. CO[C@H]1CN(C)C(=O)c2cc(NS(C)(=O)=O)ccc2OC[C@@H](C)N(Cc2ccccn2)C[C@@H]1C
    x, -9, x, x, x
12. COc1ccc(S(=O)(=O)Nc2ccccc2C(=O)OC2CCCN(C)C2)cc1OC (configuration not stated)
    -15, 82*, 4, -1, 12
13. COc1ccccc1NS(=O)(=O)c1ccc(OC)c(OC)c1
    3, 22, -1, -1, -9
14. COc1ccc(S(=O)(=O)Nc2ccccc2C(=O)NC(C)(C)C)cc1OC
    5, 123*, 0, 1, -3
15. COCC(=O)Nc1ccc2c(c1)C(=O)N(C)[C@@H]1CC[C@H](CC(=O)NCC3CCCCC3)O[C@@H]1CO2
    -6, 20, -4, x, x
16. C[C@H]1CN([C@@H](C)CO)C(=O)Cc2cc(NC(=O)CCC(F)(F)F)ccc2O[C@H]1CN(C)CC1CCCCC1
    0, 13, 14, x, x
17. CCCc1cn(CC[C@H]2CC[C@@H](NC(=O)Nc3ccccc3F)[C@@H](CO)O2)nn1
    -1, 0, 18, x, x
18. O=C(Nc1ccncc1)c1ccc(Br)cc1
    -18, 12, 1, 2, 5
19. O=C(Nc1ccncc1)c1cc(F)cc(F)c1
    -13, 72*, 0, 1, -4
20. Cc1cc(C(=O)Nc2ccncc2)c(C)o1
    -17, 5, 0, -1, 51*
21. C[C@H]1CN([C@@H](C)CO)C(=O)CCCn2nncc2CO[C@@H]1CN(C)S(C)(=O)=O
    x, 0, x, x, x
22. COc1ccc(C2c3cc(OC)c(OC)cc3CC3C(=O)OCC32)cc1OC (configuration not stated)
    11, 96*, 0, -1, -6
23. COc1ccc(C2CC(=O)c3cc(OC)c(OC)cc32)cc1OC (configuration not stated)
    -9, x, 1, 0, 1
24. CC(=O)N1[C@H](CO)[C@H](c2ccc(C3=CCCC3)cc2)[C@@H]1CNC(=O)CN(C)C
    3, -9, 0, x, x
25. COc1cc(C)ccc1OCCCOc1cc(C)ccc1Cl
    -17, 156*, -2, 0, 10
26. COc1cc(C)ccc1OCCCOc1c(Cl)cccc1Cl
    -16, x, -2, 1, -6
27. CCC(=O)Nc1ccc2c(c1)C(=O)N(C)[C@H]1CC[C@H](CC(=O)Nc3cccc(F)c3)O[C@@H]1CO2
    0, -4, 0, x, x
28. C=CCOc1ccc2c(OC)c3ccoc3nc2c1OC
    2, 92*, -3, 3, 0
29. O=C(NCC[C@H]1CC[C@@H](NS(=O)(=O)c2ccc(F)cc2)[C@H](CO)O1)c1ccc2c(c1)OCO2
    -1, 13, 95*, x, x
30. Cc1cccc(NC(=O)C2CCCN2C(=O)OCC(C)C)c1C (configuration not stated)
    -13, 91*, -2, 0, 7
31. CC(=O)c1cccc(NC(=O)N2CCCC2C(=O)NC2CCCC2)c1 (configuration not stated)
    -5, 1, 1, 1, -7
32. CC(=O)c1cccc(NC(=O)N2CCCC2C(=O)Nc2cc(C)ccc2C)c1 (configuration not stated)
    3, 115*, -2, -1, -1
33. COc1ccc(C)cc1NC(=O)C1CCCN1C(=O)OCc1ccccc1 (configuration not stated)
    -8, 132*, -2, 0, -3
34. COc1ccc(OC)c(NC(=O)C2CCCN2C(=O)OCc2ccccc2)c1 (configuration not stated)
    1, 28, 26, 1, -6
35. Cc1cccc(NC(=O)C2CCCN2C(=O)OCC(C)C)c1 (configuration not stated)
    2, x, 0, 0, x
36. COC(=O)c1ccc(CSc2nc(N3CCOCC3)c3c(c2C#N)CC(C)(C)OC3)o1
    12, 81*, -1, 1, 3
37. Cc1ccc(S(=O)(=O)NNC2=NCCCCC2)cc1
    -16, 92*, 0, 0, -5
38. O=S(=O)(NC1=NCCC1)c1ccc(F)cc1
    -14, 107*, -2, 0, -2
39. Cc1cccc(C)c1Nc1nnc(SCc2cc([N+](=O)[O-])cc3c2OCOC3)s1
    -18, 244*, -1, -1, -11
40. COc1ccccc1C(=O)N1C[C@H]2[C@@H](c3ccccc31)[C@@H](CO)N2Cc1ccc(F)cc1
    -13, 24, 1, x, x
41. CCCNC(=O)C[C@@H]1CC[C@@H]2[C@H](COc3ccc(NS(=O)(=O)CC)cc3C(=O)N2C)O1
    -18, -18, -2, x, x
42. CC(=O)N1CCN(c2ncnc3ccccc23)CC1
    4, 2, 4, 0, 58*
43. c1ccc2c(c1)ncn2-c1ncnc2sc3c(c12)CCCC3
    -11, -8, -2, 0, 4
44. CC(O)CNc1nc2ccccc2n1-c1ncnc2sc3c(c12)CCC3 (configuration not stated)
    -12, 114*, -2, 2, 31
45. C/C=C/c1ccc2c(c1)O[C@@H](CN(C)C)[C@H](C)CN([C@@H](C)CO)S2(=O)=O
    10, 9, 8, x, x

# Complete entries, quoted from the list:
# CC(O)CNc1nc2ccccc2n1-c1ncnc2sc3c(c12)CCC3 (configuration not stated) across the screens: Yeast UUG start: -12; Statin myotox sup: 114*; Cneo AK release: -2; CDK5 p35 inh: 2; Rtt109 Vps75: 31
# CC(=O)N1CCN(c2ncnc3ccccc23)CC1 across the screens: Yeast UUG start: 4; Statin myotox sup: 2; Cneo AK release: 4; CDK5 p35 inh: 0; Rtt109 Vps75: 58*
# C/C=C/c1ccc2c(c1)O[C@@H](CN(C)C)[C@H](C)CN([C@@H](C)CO)S2(=O)=O across the screens: Yeast UUG start: 10; Statin myotox sup: 9; Cneo AK release: 8; CDK5 p35 inh: x; Rtt109 Vps75: x

# Screening results as filed in PubChem.
